Data: US20110098180A1, “Herbicide-Resistant Plants, And Polynucleotides And Methods For Providing Same” (United States Department of Agriculture, priority 2002, published 2011)

Chains of the proteins cited; added tags and fusions are not shown. Residues count along the entry.
UniProt Q66PY0, 1-580 R304H: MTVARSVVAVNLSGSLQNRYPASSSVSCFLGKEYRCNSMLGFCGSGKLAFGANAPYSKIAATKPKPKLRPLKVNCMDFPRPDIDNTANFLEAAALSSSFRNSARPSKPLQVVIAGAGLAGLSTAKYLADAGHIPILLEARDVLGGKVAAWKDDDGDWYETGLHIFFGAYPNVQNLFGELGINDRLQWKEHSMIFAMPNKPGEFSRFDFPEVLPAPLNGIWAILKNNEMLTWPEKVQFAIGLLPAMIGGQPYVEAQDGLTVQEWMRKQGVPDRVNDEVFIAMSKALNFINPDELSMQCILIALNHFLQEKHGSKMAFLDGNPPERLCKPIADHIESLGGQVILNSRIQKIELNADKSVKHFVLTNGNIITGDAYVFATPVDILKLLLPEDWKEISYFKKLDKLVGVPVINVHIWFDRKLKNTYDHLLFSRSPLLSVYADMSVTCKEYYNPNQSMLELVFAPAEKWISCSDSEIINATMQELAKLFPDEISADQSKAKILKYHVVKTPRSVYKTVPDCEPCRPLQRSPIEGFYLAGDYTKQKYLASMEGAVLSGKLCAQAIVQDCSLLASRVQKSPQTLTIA
UniProt Q66PY0, 1-580 R304T: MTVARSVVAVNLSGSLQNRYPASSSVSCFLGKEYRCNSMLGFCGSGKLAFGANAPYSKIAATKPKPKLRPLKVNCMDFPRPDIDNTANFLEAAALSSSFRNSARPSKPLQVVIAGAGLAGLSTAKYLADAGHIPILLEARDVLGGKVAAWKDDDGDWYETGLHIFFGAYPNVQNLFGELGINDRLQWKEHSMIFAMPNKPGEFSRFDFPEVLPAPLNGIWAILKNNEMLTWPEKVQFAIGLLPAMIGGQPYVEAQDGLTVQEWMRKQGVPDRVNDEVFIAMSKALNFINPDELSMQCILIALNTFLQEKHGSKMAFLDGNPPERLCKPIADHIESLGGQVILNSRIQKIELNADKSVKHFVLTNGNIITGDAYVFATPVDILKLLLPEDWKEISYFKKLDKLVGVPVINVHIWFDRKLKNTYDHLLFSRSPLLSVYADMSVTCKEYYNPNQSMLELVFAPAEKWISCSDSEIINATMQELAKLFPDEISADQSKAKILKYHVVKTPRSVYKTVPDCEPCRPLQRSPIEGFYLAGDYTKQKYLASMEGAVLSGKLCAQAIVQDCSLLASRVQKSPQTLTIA
UniProt Q66PY0, 1-580 R304C: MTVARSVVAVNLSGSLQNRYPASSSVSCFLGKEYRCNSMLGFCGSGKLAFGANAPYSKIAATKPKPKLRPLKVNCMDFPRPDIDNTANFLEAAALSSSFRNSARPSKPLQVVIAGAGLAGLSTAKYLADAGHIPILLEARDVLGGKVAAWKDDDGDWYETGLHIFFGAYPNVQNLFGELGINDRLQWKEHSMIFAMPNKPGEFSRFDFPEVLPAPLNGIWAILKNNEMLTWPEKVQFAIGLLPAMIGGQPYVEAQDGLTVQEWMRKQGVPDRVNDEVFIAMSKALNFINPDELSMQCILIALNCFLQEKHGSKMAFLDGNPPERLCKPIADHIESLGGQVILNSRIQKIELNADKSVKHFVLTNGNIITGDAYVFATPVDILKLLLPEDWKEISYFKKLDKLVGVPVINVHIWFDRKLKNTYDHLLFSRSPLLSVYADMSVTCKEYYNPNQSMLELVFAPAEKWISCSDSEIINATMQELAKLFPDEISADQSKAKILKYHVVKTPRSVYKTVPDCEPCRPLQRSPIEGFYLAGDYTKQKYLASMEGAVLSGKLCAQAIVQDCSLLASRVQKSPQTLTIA
UniProt Q66PY0, 1-580 R304S: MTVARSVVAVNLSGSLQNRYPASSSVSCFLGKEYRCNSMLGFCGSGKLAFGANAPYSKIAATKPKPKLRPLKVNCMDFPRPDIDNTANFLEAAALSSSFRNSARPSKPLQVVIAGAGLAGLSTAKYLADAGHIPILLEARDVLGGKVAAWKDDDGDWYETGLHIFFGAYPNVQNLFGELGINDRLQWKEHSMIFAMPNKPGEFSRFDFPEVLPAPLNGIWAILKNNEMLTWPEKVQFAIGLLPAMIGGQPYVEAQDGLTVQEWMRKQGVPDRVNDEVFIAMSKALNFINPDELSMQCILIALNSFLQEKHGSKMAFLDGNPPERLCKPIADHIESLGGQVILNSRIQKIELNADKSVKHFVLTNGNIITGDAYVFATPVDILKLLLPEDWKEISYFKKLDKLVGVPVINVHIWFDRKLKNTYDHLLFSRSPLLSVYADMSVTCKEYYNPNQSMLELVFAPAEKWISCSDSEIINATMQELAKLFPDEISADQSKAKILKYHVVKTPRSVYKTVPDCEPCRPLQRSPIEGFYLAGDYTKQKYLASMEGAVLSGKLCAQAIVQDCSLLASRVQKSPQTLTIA
UniProt Q66PY0, 1-580: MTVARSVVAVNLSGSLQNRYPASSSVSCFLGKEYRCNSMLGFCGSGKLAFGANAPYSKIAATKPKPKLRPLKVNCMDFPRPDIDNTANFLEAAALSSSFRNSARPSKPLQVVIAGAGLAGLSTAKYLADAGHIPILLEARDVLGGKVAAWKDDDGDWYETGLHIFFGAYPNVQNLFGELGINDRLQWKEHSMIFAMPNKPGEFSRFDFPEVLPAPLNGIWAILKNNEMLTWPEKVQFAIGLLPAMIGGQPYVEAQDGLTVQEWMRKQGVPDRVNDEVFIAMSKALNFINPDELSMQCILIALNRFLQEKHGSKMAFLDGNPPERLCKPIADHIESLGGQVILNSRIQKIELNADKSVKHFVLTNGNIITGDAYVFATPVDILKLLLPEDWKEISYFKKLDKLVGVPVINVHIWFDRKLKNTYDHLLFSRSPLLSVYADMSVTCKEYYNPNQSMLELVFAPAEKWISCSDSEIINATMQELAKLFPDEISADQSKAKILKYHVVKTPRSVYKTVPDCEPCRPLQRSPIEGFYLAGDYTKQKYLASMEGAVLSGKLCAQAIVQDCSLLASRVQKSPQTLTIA
UniProt Q66PY0, 1-580 R304F: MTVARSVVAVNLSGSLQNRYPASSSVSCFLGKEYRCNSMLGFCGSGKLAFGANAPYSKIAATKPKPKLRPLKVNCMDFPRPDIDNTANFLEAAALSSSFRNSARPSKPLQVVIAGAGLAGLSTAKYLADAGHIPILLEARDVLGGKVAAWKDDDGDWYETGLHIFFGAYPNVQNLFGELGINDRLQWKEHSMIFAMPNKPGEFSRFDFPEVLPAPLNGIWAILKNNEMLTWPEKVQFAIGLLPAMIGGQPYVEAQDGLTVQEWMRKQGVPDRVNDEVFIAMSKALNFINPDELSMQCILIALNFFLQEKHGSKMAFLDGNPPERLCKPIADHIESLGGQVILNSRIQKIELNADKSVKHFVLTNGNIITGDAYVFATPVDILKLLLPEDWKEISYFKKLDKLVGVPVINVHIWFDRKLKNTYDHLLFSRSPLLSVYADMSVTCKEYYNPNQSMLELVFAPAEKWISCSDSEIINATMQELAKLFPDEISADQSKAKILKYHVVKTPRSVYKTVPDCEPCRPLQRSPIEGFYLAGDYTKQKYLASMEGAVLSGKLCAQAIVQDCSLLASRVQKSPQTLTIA
UniProt Q66PY0, 1-580 R304I: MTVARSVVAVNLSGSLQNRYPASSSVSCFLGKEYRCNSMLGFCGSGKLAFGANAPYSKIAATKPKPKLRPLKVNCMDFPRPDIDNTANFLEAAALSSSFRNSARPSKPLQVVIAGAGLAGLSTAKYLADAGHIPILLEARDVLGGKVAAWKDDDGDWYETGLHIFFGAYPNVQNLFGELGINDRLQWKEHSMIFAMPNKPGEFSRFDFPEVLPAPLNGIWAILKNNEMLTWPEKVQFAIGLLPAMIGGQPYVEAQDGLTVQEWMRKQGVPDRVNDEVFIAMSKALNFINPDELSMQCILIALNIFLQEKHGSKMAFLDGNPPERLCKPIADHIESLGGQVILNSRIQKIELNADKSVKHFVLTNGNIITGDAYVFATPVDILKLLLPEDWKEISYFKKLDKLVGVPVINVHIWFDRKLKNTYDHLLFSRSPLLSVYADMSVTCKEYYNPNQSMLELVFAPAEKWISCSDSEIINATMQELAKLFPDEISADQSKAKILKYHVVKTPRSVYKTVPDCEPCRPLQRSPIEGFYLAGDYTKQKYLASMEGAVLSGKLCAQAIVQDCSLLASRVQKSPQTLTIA
UniProt Q66PY0, 1-580 R304N: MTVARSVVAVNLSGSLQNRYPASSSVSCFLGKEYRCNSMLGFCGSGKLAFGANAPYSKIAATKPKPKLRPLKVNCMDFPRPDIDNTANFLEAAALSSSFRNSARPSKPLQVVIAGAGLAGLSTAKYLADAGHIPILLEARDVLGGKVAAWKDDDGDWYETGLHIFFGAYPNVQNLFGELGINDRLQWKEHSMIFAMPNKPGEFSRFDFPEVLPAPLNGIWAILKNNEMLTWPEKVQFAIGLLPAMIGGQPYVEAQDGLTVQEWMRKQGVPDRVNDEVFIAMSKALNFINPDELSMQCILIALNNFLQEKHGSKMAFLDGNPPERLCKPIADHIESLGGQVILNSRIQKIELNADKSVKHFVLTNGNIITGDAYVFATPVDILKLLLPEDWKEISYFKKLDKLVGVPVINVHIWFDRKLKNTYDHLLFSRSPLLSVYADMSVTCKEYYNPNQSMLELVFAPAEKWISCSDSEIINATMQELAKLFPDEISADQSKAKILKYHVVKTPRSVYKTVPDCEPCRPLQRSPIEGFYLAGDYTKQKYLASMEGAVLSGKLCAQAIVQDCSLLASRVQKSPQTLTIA

Assays:
Assay type in all cases: biochemical
[1] = target: hydrilla PDS Arg^304 → Histidine (Hydrilla verticillata, UniProt Q66PY0, R304H); assay: Cross resistance to bleaching herbicides, in vitro PDS inhibition, non-His-tagged (Table 2); settings: read-out: I50, Histidine at 304, construct in frame with LacZalpha-ccdB
Method: (§1) The expression constructs in Table 2 were derived from an original clone of the susceptible PDS gene from Hydrilla and then the Arg^304 was mutated to the listed amino acid. Expression was under the control of the lac promoter but in frame with the initiation codon of the LacZalpha-ccdB gene in the pCR4-TOPO vector (Invitrogen Inc., CA, Cat. #K4575-01).
(§2) All mutagenesis was performed, unless stated otherwise, using the TOPO-vector containing the wildtype (H4) PDS-sequence, which was extracted from an overnight culture with the Qiagen Plasmid Prep Kit as described above. The amount of the extracted plasmid was diluted to 10 ng/μl and used as template in a mutagenesis-procedure using the QuikChange Site-directed Mutagenesis Kit (Stratagene, Calif., #200518). The design of the mutagenesis-primers was conducted according to the manufacturers protocol to enable the specific change of Arg^304-codon to code for the desired amino acid. Primers (purchased from MWG-Biotech) and their introduced amino acid change are listed below with the changed codon underlined:
(§3) The reactions were performed according to the manufacturers protocol. Reactions were set up in MicroAmp-tubes on ice with 38 μl ddH2O, 5 μl 10× reaction buffer, 2 μl plasmid (10 ng/μl), 1.25 μl forward-mutagenesis primer (100 ng/μl), 1.25 μl of reverse mutagenesis primer (100 ng/μl), 1 μl dNTP-mix and 1 μl PfuTurboDNA polymerase (2.5 U/μl). The reactions were placed in a PE 9700 thermal cycler and heated to 95° C. for 30 sec followed by 12 rounds at 95° C. for 30 sec, 55° C. for 1 min and 68° C. for 12 min. The PCR was followed by a DpnI-digestion and transformation in XL1-Blue supercompetent cells as described in the manual. 4-6 resulting colonies were grown overnight in LB-medium with kanamycin and plasmid DNA was isolated as described above. The plasmid was used as template for sequencing with M13 and internal PDS-primers as described above on a LiCOR-system. Sequences were assembled and analyzed using Seqman. Introduced mutations were identified and plasmids carrying the desired mutation(s) were transferred into competent TOP10-cells, using the transformation protocol from the TOPO TA Cloning Kit. Resulting colonies were grown overnight in Wu-broth with kanamycin, aliquoted and stored at −80° C. until further use. 1 ml of Wu-cultures was used to start 1-L LB-cultures with kanamycin as described before, to express active PDS-enzyme for testing as described.
(§4) Phytoene desaturase activity and its inhibition by herbicides was determined using an in vitro system using components derived from the in vivo production of phytoene and phytoene desaturase proteins. All mutations described in Examples 3 and 4 were tested. […] The clones were used for the heterologous expression of Hydrilla-PDS-enzyme. In particular, bacterial cultures were grown from single colonies overnight in Wu-broth (6.27 g/L K2HPO4, 1.8 g/L KH2PO4, 0.5 g/L Na-citrate, 0.9 g/L (NH4)2SO4, 10 g/L tryptone, 5 g/L yeast extract, 10 g/L NaCl, 44 ml/L glycerol, 0.1 mM MgSO4, pH 7.2) with kanamycin. 1-mL was aliquoted in centrifuge tube and stored at −80° C. For expression, 1 L LB-medium with kanamycin was inoculated with 1-mL Wu-culture and grown for 24 h at 37° C. to stationary phase with shaking at 200 rpm. The cells were collected by centrifugation at 2000×g. All of the following steps were done at 4° C. unless otherwise noted.

[2] = target: Hydrilla PDS Arg^304 → Threonine (Hydrilla verticillata, UniProt Q66PY0, R304T); assay: as above; settings: read-out: I50, Threonine at 304, construct in frame with LacZalpha-ccdB
Method: as §1, §2, §3, §4

[3] = target: hydrilla PDS Arg^304 → Cysteine (Hydrilla verticillata, UniProt Q66PY0, R304C); assay: as above; settings: read-out: I50, Cysteine at 304, construct in frame with LacZalpha-ccdB
Method: as §1, §2, §3, §4

[4] = target: hydrilla PDS Arg^304 → Serine (Hydrilla verticillata, UniProt Q66PY0, R304S); assay: as above; settings: read-out: I50, Serine at 304, construct in frame with LacZalpha-ccdB
Method: as §1, §2, §3, §4

[5] = target: hydrilla PDS position 304 Arginine (wildtype) (Hydrilla verticillata, UniProt Q66PY0); assay: as above; settings: read-out: I50, Arginine at 304, construct in frame with LacZalpha-ccdB
Method: as §1, §2, §3, §4

[6] = target: Hydrilla PDS Arg^304 → Phenyalanine (Hydrilla verticillata, UniProt Q66PY0, R304F); assay: Fluridone enzyme inhibition assay, non-His-tagged PDS (Table 1); settings: read-out: I50, construct not in frame with LacZalpha-ccdB
Method: as §1, with “1” for “2”, “[…]” for “but”
as §2, §3
as §4, with “noted. Active soluble PDS enzyme was extracted by lysing the transformed E. coli cells using a French Press at 20,000 psi in assay buffer consisting of 100 mM Tris-HCl, pH 7.2, 10 mM magnesium-chloride, 0.1 mM NADP, 0.1 mM FAD, 10 mM cysteine, 5 mM DTT, 1 mM aminocaproic acid, and 1 μg/ml leupeptin. The soluble fraction containing PDS activity was obtained by centrifugation for 10 min at 1200×g. After 24 h they were centrifuged down and used in PDS enzyme activity assays as described below.” for “noted.”

[7] = target: Hydrilla PDS Arg^304 → Isoleucine (Hydrilla verticillata, UniProt Q66PY0, R304I); assay: as above; settings: read-out: I50, construct not in frame with LacZalpha-ccdB
Method: as §1, with “1” for “2”, “[…]” for “but”
as §2, §3
as §4, with “noted. Active soluble PDS enzyme was extracted by lysing the transformed E. coli cells using a French Press at 20,000 psi in assay buffer consisting of 100 mM Tris-HCl, pH 7.2, 10 mM magnesium-chloride, 0.1 mM NADP, 0.1 mM FAD, 10 mM cysteine, 5 mM DTT, 1 mM aminocaproic acid, and 1 μg/ml leupeptin. The soluble fraction containing PDS activity was obtained by centrifugation for 10 min at 1200×g. After 24 h they were centrifuged down and used in PDS enzyme activity assays as described below.” for “noted.”

[8] = target: Hydrilla PDS Arg^304 → Asparagine (Hydrilla verticillata, UniProt Q66PY0, R304N); assay: as above; settings: read-out: I50, construct not in frame with LacZalpha-ccdB
Method: as §1, with “1” for “2”, “[…]” for “but”
as §2, §3
as §4, with “noted. Active soluble PDS enzyme was extracted by lysing the transformed E. coli cells using a French Press at 20,000 psi in assay buffer consisting of 100 mM Tris-HCl, pH 7.2, 10 mM magnesium-chloride, 0.1 mM NADP, 0.1 mM FAD, 10 mM cysteine, 5 mM DTT, 1 mM aminocaproic acid, and 1 μg/ml leupeptin. The soluble fraction containing PDS activity was obtained by centrifugation for 10 min at 1200×g. After 24 h they were centrifuged down and used in PDS enzyme activity assays as described below.” for “noted.”

Substance: Fluridone
- IC50 [1]: 5 µM
- IC50 [2]: 18.1 µM
- IC50 [3]: 5.7 µM
- IC50 [4]: 9.9 µM
- IC50 [5]: 1.8 µM
- IC50 [6]: 0.53 µM
- IC50 [7]: 2 µM
- IC50 [8]: 0.63 µM
